Sequences of proteins named here, by UniProt entry; tags and fusion partners are left off. A change or cut given only in a name is not applied to a line headed by its entry.
UniProt P23385: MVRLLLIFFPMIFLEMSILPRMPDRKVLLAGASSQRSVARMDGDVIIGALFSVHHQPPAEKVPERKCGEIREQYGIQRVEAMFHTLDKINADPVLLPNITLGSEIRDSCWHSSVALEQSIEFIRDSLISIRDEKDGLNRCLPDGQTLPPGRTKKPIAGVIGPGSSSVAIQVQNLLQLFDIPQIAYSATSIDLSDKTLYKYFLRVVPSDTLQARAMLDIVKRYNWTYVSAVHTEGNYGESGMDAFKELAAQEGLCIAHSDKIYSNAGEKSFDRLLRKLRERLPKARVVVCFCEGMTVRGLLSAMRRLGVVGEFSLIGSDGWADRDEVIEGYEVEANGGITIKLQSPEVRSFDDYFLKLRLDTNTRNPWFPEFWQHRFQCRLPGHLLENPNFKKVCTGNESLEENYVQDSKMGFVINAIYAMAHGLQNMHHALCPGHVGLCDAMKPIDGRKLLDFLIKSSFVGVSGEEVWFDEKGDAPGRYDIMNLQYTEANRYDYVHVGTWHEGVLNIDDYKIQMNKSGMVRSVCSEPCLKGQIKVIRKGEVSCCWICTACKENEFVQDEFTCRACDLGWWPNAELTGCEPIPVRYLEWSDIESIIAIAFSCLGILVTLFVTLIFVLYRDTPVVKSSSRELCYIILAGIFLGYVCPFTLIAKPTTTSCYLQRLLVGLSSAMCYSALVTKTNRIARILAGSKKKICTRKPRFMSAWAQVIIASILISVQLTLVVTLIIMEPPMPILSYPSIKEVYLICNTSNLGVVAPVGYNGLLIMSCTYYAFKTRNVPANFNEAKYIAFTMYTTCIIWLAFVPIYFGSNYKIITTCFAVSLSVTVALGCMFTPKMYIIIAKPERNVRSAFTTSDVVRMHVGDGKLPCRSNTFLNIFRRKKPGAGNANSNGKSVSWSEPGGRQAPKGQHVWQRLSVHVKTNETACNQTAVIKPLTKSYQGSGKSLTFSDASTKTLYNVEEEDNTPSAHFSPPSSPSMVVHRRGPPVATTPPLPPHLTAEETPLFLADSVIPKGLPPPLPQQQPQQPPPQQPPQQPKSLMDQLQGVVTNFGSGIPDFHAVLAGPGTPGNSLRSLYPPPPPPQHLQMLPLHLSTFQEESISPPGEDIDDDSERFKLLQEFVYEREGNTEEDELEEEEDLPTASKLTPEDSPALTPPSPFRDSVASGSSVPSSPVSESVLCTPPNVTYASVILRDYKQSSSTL

In ChEMBL document CHEMBL1144351, “Synthesis, structure-activity relationship, and receptor pharmacology of a new series of quinoline derivatives acting as selective, noncompetitive mGlu1 antagonists” (J Med Chem, 2005):

biological target: Metabotropic glutamate receptor 1 (Rattus norvegicus, UniProt P23385); experiment: Inhibitory concentration against rat metabotropic glutamate receptor 1
How it was run: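 Rat mGlu1a stably expressed in CHO-dhfr- cells grown in DMEM/GlutaMAX1 with 10% heat-inactivated dialyzed fetal calf serum, 0.4 mM L-proline and antibiotics. Inhibition of receptor activation was measured as intracellular Ca2+ rise on a fluorometric imaging plate reader. IC50 is the mean of two or three independent experiments.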

IC50 [nM]	SMILES
4	CCc1cc2cc(C(=O)[C@H]3CC[C@@H](OC)CC3)ccc2nc1F
5	CCCc1ccc2cc(C(=O)[C@H]3CC[C@@H](OC)CC3)ccc2n1
3	CCc1cc2cc(C(=O)C3CCC(OC)CC3)ccc2nc1CC (stereo in doubt; cis)
65	CCc1cc2cc(C(=O)C3CCC(OC)CC3)ccc2nc1CC (stereo in doubt; trans)

More lines, now with the values behind:

SMILES	IC50 [nM]
CO[C@H]1CC[C@@H](C(=O)c2ccc3nc4c(cc3c2)CCCN4C)CC1	8
CO[C@H]1CC[C@@H](C(=O)c2ccc3nc4c(cc3c2)CCC4)CC1	4
CCc1cc2cc(C(=O)C3CCC(O)CC3)ccc2nc1C (configuration not stated)	50
